Laboratory results taken from patent US10023570B2 (Array BioPharma, Inc., priority 2015, dated 2018).
pIC50: −log10 of the molar value. Where a name gives a salt, the structure may show the parent alone. Read-outs that look alike come from different tables or passages of the source.

Protein sequences, listed by entry. Tags and fused reporters are not part of them. Residues count along the entry.
UniProt P07949, 658-1114: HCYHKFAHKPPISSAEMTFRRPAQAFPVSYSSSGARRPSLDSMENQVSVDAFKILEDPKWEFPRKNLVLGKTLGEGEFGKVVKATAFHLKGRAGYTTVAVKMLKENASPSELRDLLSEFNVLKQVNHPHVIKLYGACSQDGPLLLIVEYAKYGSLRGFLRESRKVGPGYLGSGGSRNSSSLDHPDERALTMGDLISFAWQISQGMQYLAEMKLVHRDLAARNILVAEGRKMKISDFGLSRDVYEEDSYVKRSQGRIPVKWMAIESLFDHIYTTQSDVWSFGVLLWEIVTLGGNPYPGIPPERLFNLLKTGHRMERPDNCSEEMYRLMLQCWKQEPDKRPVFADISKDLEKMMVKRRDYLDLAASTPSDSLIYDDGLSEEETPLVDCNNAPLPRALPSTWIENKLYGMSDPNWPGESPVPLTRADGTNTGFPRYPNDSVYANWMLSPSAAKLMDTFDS

Target: N-terminal GST tagged recombinant human RET cytoplasmic domain (aa 658-end), wild type RET kinase (Homo sapiens (Human), UniProt P07949)
Test: RET Enzyme Assay (HTRF KinEASE-TK), wild type RET
Type: biochemical

SMILES	pIC50 (wild type RET, 1 mM ATP)	pIC50
Cn1cc(-c2cc(-c3ccc(N4CCN(C(=O)OC(C)(C)C)CC4)nc3)c3ccnn3c2)cn1 [Example 311, tert-butyl 4-(5-(6-(1-methyl-1H-pyrazol-4-yl)pyrazolo[1,5-a]pyridine-4-yl)pyridine-2-yl)piperazine-1-carboxylate]	5.52	–
C[C@@H](c1ccccc1)N1CCN(c2ccc(-c3cc(-c4cnn(C)c4)cn4ncc(C#N)c34)cn2)CC1 [Example 422, (S)-6-(1-methyl-1H-pyrazol-4-yl)-4-(6-(4-(1-phenylethyl)piperazin-1-yl)pyridine-3-yl)pyrazolo[1,5-a]pyridine-3-carbonitrile dihydrochloride]	–	7.89
